B1: RAC-alpha serine/threonine-protein kinase (Homo sapiens), P31749 (parent)
chain: MSDVAIVKEGWLHKRGEYIKTWRPRYFLLKNDGTFIGYKERPQDVDQREAPLNNFSVAQCQLMKTERPRPNTFIIRCLQWTTVIERTFHVETPEEREEWTTAIQTVADGLKKQEEEEMDFRSGSPSDNSGAEEMEVSLAKPKHRVTMNEFEYLKLLGKGTFGKVILVKEKATGRYYAMKILKKEVIVAKDEVAHTLTENRVLQNSRHPFLTALKYSFQTHDRLCFVMEYANGGELFFHLSRERVFSEDRARFYGAEIVSALDYLHSEKNVVYRDLKLENLMLDKDGHIKITDFGLCKEGIKDGATMKTFCGTPEYLAPEVLEDNDYGRAVDWWGLGVVMYEMMCGRLPFYNQDHEKLFELILMEEIRFPRTLGPEAKSLLSGLLKKDPKQRLGGGSEDAKEIMQHRFFAGIVWQHVYEKKLSPPFKPQVTSETDTRYFDEEFTAQMITITPPDQDDSMECVDSERRPHFPQFSYSASGTA
partner: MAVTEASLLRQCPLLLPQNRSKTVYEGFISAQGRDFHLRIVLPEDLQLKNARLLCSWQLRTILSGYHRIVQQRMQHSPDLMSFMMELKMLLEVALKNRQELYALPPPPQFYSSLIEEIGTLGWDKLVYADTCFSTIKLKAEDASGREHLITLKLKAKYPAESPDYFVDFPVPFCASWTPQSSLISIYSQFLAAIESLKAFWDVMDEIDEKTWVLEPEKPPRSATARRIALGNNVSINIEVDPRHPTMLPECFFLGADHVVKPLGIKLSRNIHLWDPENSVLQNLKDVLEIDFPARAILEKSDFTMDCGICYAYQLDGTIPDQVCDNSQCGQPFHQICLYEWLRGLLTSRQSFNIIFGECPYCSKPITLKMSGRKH
B2: RAC-alpha serine/threonine-protein kinase (Homo sapiens), P31749 (parent)
chain: B1 chain
partner: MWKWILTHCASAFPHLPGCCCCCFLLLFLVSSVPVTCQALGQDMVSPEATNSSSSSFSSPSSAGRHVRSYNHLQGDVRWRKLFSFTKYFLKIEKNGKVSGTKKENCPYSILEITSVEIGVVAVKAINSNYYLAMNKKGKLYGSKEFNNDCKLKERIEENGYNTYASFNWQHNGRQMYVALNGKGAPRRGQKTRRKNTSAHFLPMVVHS
B3: RAC-alpha serine/threonine-protein kinase (Homo sapiens), P31749 (parent)
chain: B1 chain
partner: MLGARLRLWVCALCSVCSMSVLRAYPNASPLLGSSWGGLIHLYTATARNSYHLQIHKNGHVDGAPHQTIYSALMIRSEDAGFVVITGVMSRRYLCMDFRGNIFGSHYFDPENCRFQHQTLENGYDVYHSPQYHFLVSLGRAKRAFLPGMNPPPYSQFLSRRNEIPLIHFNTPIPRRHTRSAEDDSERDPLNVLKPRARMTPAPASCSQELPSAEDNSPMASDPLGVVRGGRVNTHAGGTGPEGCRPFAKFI
B4: RAC-alpha serine/threonine-protein kinase (Homo sapiens), P31749 (parent)
chain: B1 chain
partner: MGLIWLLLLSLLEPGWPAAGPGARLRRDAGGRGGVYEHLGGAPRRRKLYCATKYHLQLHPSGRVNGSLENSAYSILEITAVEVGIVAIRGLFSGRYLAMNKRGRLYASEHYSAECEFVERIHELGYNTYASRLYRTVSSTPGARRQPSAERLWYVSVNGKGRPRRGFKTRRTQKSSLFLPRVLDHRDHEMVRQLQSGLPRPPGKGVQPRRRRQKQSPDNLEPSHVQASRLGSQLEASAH
B5: RAC-alpha serine/threonine-protein kinase (Homo sapiens), P31749 (parent)
chain: B1 chain
partner: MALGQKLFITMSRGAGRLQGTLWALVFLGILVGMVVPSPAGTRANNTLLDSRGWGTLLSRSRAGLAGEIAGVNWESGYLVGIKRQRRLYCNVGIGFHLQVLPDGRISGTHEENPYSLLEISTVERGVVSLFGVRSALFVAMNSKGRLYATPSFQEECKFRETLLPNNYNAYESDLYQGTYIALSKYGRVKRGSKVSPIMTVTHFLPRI
B6: RAC-alpha serine/threonine-protein kinase (Homo sapiens), P31749 (parent)
chain: B1 chain
partner: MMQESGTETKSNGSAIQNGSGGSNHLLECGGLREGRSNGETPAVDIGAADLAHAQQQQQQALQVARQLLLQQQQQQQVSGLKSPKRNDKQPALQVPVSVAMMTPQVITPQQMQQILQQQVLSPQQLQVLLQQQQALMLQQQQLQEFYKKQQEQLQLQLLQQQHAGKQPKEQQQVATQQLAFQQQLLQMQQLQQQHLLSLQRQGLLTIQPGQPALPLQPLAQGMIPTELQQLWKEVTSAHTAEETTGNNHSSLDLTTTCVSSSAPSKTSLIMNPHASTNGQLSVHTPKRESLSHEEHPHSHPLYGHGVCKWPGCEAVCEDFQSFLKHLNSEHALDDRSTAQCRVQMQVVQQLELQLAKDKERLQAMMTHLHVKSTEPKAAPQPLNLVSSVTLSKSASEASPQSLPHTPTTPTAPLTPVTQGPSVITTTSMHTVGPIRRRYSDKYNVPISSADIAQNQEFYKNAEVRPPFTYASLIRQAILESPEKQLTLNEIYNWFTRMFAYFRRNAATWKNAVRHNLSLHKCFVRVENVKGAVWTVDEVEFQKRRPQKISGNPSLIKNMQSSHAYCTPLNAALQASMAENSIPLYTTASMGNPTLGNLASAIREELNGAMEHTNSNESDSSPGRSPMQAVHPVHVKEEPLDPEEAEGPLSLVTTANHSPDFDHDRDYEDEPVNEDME
B7: RAC-alpha serine/threonine-protein kinase (Homo sapiens), P31749 (parent)
chain: B1 chain
partner: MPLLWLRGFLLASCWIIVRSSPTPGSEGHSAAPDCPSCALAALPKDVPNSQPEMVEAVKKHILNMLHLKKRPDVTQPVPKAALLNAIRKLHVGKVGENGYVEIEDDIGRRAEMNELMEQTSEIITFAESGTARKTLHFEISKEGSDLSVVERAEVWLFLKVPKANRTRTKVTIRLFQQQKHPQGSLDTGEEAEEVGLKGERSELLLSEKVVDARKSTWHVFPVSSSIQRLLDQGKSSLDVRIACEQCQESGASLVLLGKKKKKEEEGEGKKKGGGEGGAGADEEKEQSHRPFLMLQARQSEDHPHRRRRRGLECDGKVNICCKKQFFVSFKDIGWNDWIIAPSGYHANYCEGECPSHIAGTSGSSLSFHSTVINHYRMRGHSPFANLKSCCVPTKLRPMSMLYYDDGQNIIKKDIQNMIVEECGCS
B8: RAC-alpha serine/threonine-protein kinase (Homo sapiens), P31749 (parent)
chain: B1 chain
partner: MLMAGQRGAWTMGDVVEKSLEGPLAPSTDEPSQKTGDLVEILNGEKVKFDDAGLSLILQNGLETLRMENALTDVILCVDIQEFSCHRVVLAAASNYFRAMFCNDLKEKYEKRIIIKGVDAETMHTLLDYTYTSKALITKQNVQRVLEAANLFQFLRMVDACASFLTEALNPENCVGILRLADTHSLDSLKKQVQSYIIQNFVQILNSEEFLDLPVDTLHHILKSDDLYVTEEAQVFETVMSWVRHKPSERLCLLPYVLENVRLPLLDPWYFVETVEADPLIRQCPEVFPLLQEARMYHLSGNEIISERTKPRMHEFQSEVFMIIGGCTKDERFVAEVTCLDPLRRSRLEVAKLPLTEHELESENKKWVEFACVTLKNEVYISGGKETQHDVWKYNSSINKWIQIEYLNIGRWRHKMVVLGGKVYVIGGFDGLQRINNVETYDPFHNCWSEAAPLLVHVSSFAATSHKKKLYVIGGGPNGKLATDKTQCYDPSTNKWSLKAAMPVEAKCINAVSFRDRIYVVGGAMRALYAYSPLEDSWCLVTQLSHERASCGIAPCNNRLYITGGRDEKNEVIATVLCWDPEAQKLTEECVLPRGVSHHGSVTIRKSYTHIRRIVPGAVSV
B9: RAC-alpha serine/threonine-protein kinase (Homo sapiens), P31749 (parent)
chain: B1 chain
partner: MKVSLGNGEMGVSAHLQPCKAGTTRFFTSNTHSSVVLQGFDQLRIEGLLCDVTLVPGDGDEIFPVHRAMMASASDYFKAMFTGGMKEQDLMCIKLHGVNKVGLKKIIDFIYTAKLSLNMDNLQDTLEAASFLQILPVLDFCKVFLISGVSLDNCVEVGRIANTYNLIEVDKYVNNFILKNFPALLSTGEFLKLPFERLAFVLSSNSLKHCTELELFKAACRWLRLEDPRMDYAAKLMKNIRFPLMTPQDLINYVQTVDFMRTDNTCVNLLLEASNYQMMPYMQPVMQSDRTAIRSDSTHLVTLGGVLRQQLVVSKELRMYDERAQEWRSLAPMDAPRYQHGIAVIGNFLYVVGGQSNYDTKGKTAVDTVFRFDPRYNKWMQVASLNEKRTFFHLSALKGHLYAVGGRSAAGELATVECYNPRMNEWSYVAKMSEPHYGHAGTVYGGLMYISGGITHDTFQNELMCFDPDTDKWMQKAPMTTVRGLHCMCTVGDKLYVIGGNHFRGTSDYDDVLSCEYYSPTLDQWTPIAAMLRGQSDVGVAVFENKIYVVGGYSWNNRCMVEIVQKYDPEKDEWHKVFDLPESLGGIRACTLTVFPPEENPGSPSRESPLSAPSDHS
B10: RAC-alpha serine/threonine-protein kinase (Homo sapiens), P31749 (parent)
chain: B1 chain
partner: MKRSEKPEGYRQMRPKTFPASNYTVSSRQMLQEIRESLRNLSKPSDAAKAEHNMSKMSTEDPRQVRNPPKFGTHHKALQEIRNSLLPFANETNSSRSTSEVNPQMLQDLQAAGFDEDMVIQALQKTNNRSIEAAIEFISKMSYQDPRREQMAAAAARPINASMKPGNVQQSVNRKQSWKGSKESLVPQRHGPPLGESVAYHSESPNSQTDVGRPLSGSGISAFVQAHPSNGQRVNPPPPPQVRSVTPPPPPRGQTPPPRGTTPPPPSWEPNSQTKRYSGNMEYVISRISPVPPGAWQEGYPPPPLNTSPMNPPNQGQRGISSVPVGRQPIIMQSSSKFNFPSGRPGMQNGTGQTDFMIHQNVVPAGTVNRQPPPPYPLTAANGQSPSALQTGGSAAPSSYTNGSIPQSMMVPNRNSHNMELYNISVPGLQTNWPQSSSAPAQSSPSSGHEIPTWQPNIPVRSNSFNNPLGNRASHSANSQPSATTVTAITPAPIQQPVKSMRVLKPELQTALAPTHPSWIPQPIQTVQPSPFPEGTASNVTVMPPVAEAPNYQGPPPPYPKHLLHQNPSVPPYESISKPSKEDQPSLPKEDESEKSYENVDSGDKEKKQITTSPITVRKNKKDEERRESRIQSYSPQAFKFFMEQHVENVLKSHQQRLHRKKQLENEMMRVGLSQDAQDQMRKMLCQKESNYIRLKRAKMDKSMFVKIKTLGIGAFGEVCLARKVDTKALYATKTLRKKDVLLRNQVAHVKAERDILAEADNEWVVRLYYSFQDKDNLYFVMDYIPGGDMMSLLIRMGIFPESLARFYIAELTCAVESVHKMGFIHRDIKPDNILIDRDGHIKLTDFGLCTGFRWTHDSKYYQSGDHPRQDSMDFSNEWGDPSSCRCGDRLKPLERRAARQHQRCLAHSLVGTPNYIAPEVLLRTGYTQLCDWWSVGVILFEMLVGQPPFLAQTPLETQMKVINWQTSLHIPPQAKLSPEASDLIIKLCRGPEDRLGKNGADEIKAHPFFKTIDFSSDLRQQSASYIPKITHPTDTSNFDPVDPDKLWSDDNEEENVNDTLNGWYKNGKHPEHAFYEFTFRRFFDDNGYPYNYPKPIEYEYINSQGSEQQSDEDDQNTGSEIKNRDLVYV

Variants of: B1
Conditions: with fancl_human FANCL

Row | Variant | effect of a mutation on the interaction
1 | E17K | causing an interaction

Variants of: B2
Conditions: with fgf10_human FGF10, O15520

Row | Variant | effect of a mutation on the interaction
2 | E17K | causing an interaction

Variants of: B3
Conditions: with fgf23_human FGF23, Q9GZV9

Row | Variant | effect of a mutation on the interaction
3 | E17K | causing an interaction

Variants of: B3
Conditions: with fgf23_human FGF23, Q9GZV9
Remark: another data set of the same source

Row | Variant | effect of a mutation on the interaction
4 | E17K | increasing interaction strength

Variants of: B4
Conditions: with fgf3_human FGF3, P11487

Row | Variant | effect of a mutation on the interaction
5 | E17K | causing an interaction

Variants of: B5
Conditions: with fgf6_human FGF6, P10767

Row | Variant | effect of a mutation on the interaction
6 | E17K | causing an interaction

Variants of: B6
Conditions: with foxp1_human FOXP1, Q9H334

Row | Variant | effect of a mutation on the interaction
7 | E17K | causing an interaction

Variants of: B7
Conditions: with inhba_human INHBA

Row | Variant | effect of a mutation on the interaction
8 | E17K | causing an interaction

Variants of: B7
Conditions: with inhba_human INHBA
Remark: another data set of the same source

Row | Variant | effect of a mutation on the interaction
9 | E17K | increasing interaction strength

Variants of: B8
Conditions: with klhl6_human KLHL6, Q8WZ60

Row | Variant | effect of a mutation on the interaction
10 | E17K | causing an interaction

Variants of: B8
Conditions: with klhl6_human KLHL6, Q8WZ60
Remark: another data set of the same source

Row | Variant | effect of a mutation on the interaction
11 | E17K | increasing interaction strength

Variants of: B9
Conditions: with klhl9_human KLHL9, Q9P2J3

Row | Variant | effect of a mutation on the interaction
12 | E17K | causing an interaction

Variants of: B10
Conditions: with lats1_human LATS1, O95835

Row | Variant | effect of a mutation on the interaction
13 | E17K | causing an interaction

Source: IntAct's records for PubMed 35512704
